Measurements as given in patent US20060069123A1, “Substituted dipiperidine CCR2 antagonists” (priority 2004, published 2006).

biological target: T1, CCR2 (Homo sapiens, UniProt P41597); details: Inhibition of MCP-1 Binding IC50, 125I labeled MCP-1 binding to CCR2, THP-1 cells
T1 sequence (P41597 1-360 isoform P41597-2): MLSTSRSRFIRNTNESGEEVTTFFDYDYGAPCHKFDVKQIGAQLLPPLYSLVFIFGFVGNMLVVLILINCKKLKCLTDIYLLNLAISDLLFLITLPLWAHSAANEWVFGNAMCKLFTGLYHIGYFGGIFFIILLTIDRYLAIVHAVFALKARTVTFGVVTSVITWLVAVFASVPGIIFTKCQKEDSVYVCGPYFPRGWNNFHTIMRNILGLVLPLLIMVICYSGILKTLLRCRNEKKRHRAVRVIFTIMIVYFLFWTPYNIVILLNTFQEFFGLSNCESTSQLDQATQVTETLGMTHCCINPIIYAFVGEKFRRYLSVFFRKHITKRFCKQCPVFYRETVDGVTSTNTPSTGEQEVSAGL

| SMILES | IC50 [nM] |
| --- | --- |
| CS(=O)(=O)Nc1ccc2c(C3CCN(C(C(=O)O)C4CCN(C(=O)/C=C/c5cc(F)c(F)c(F)c5)CC4)CC3)c[nH]c2c1 (stereo not shown) [Cpd 82] | 110 |
| COc1ccc2c(C3CCN(C(CO)C4CCN(C(=O)/C=C/c5cc(F)c(F)c(F)c5)CC4)CC3)c[nH]c2c1 (stereo not shown) [Cpd 132, (2E)-1-(4-{2-hydroxy-1-[4-(6-methoxy-1H-indol-3-yl)-piperidin-1-yl]-ethyl}-piperidin-1-yl)-3-(3,4,5-trifluoro-phenyl)-propenone] | 50 |
| COc1ccc2c(C3CCN(C(CO)C4CCN(C(=O)/C=C/c5cc(F)c(F)c(F)c5)CC4)CC3)c[nH]c2c1 (stereo not shown) [Cpd 167, (2E)-1-(4-{2-hydroxy-1-[4-(6-methoxy-1H-indol-3-yl)-piperidin-1-yl]-ethyl}-piperidin-1-yl)-3-(3,4,5-trifluoro-phenyl)-propenone] | 73 |
| CC(=O)NCC(C1CCN(C(=O)/C=C/c2cc(F)c(F)c(F)c2)CC1)N1CCC(c2c[nH]c3ccccc23)CC1 (stereo not shown) [Cpd 213, N-(2-[4-(1H-indol-3-yl)-piperidin-1-yl]-2-{1-[(2E)-3-(3,4,5-trifluoro-phenyl)-acryloyl]-piperidin-4-yl}-ethyl)-acetamide] | 80 |
